Source: PubChem BioAssay AID938 (National Center for Advancing Translational Sciences (NCATS), 2007)
The entries are a selection whose mix differs from that of the whole data set. Results filed as inconclusive are left out. Calls of active or inactive are those of the source. The call rests on the fitted dose curve; in most records, active means well fitted activation curve with a large enough effect; inconclusive means small, poorly fitted or top-dose-only effect; inactive means no such curve, though single readings can be large or run the other way.

experiment: qHTS Assay for Agonists of the Thyroid Stimulating Hormone Receptor: Activators of Intracellular cAMP Concentrations in Parental HEK 293; details: parental HEK293 CNG cAMP sensor, membrane potential fluorescence; further: nearly all actives have a fitted effect of over 55% in size
Text: NIH Chemical Genomics Center [NCGC]
NIH Molecular Libraries Screening Centers Network [MLSCN]
PI Name: Dr. Marvin Gershengorn
This cell based assay utilized a cyclic nucleotide gated ion channel (CNG) as a biosensor for cAMP induction. HEK 293 cells stably expressing the modified CNG were purchased from BD biosciences (http://www.atto.com/products/actone/features_benefits.shtml) . Stimulation of cAMP production causes the CNG to open and subsequent membrane depolarization to occur. A fluorescent membrane potential dye (BD biosciences) was utilized to detect cAMP stimulation in cells.
The cells were maintained in DMEM medium (Invitrogen) containing 10 % FBS (Hyclone), 100 units/ml Penicillin, 100 ug/ml Streptomycin (Invitrogen), and 250 ug/ml Geneticin (Invitrogen) and 1 ug/ml Puromycin (Invitrogen) at 37C in 5% CO2. […]
High Throughput Screening. […] 23 nl/well compound or control was then added to the assay plates, which were incubated for additional 30 min before reading a Envision fluorescence plate reader (Perkin Elmer) in bottom-read mode for fluorescence intensity (emission at 590 nm).
Keywords: cAMP, CNG Ion Channel, quantitative high throughput screening, qHTS, HTS, probe identification, CNG, cAMP, cyclic nucleotide gated ion channel PubChem
Potency means the concentration at half of the fitted maximal effect.

Question: For `COc1ccc(C[C@H](C)NC[C@@H](O)c2ccc(O)c(NC=O)c2)cc1`, which Potency is on record?
Answer: active: 1.3 nM
